Assay results as given in US9242969B2, “Biaryl amide compounds as kinase inhibitors” (Novartis AG, priority 2013, dated 2016).

Chains of the proteins cited; added tags and fusions are not shown.
UniProt P04049, whole entry Y340E/Y341E: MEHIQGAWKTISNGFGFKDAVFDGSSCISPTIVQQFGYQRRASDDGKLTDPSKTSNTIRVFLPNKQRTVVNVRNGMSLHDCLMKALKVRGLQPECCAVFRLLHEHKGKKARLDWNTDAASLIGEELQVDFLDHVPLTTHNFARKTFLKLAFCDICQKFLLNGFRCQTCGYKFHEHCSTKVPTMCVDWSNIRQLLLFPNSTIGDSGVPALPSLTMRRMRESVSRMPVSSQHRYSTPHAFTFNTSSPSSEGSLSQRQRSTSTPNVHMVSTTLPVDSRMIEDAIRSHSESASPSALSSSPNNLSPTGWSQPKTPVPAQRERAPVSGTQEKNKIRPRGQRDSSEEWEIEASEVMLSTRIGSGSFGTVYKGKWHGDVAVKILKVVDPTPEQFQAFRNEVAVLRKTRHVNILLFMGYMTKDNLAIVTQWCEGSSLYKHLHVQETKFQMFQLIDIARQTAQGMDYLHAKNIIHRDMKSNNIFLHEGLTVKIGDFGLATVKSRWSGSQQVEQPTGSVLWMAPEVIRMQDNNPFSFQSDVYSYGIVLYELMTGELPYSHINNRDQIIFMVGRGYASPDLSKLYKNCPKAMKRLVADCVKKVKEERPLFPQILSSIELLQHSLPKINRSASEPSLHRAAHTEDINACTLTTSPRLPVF

target: C-Raf FL (full-length C-Raf with Y340E and Y341E activating mutations) (Homo sapiens (Human), UniProt P04049, Y340E/Y341E); type: biochemical; conditions: full-length c-Raf 4 pM, ATP 3 uM, 10 nM biotinylated MEK1 kinase dead

| Compound | IC50 |
| --- | --- |
| Cc1ccc(NC(=O)c2cccc(C(F)(F)F)c2)cc1-c1cc(N2CCOCC2)n(C)c(=O)c1 [Example 162, N-(4-methyl-3-(1-methyl-6-morpholino-2-oxo-1,2-dihydropyridin-4-yl)phenyl)-3-(trifluoromethyl)benzamide] | 0.215 nM |
| Cc1ccc(NC(=O)c2cccc(C(F)(F)F)c2)cc1-c1cc(-c2cnn(C)c2)nc(N2CCOCC2)c1 [Example 113, N-(4-methyl-3-(2-(1-methyl-1H-pyrazol-4-yl)-6-morpholinopyridin-4-yl)phenyl)-3-(trifluoromethyl)benzamide] | 0.465 nM |
| Cc1ccc(NC(=O)c2cccc(C(F)(F)F)c2)cc1-c1cnc(OC2CCOCC2)c(N2CCOCC2)c1 [Example 132, N-(4-methyl-3-(5-morpholino-6-((tetrahydro-2H-pyran-4-yl)oxy)pyridin-3-yl)phenyl)-3-(trifluoromethyl)benzamide] | 0.457 nM |
| Cc1ccc(C(=O)Nc2cccc(C(F)(F)F)c2)cc1-c1cc(N2CCOCC2)nc(N2CCOCC2)c1 [Example 112, 3-(2,6-dimorpholinopyridin-4-yl)-4-methyl-N-(3-(trifluoromethyl)phenyl)benzamide] | 0.5 nM |
| Cc1ccc(NC(=O)c2cccc(C(F)(F)F)c2)cc1-c1cc(N2CCOCC2)nc(N2CCCC2=O)n1 [Example 36, N-(4-methyl-3-(6-morpholino-2-(2-oxopyrrolidin-1-yl)pyrimidin-4-yl)phenyl)-3-(trifluoromethyl)benzamide] | 0.456 nM |
| Cc1ccc(NC(=O)c2cccc(C(C)(C)C#N)c2)cc1-c1cc(N2CCOCC2)nc(N2CCOCC2)n1 [Example 16, 3-(2-cyanopropan-2-yl)-N-(3-(2,6-dimorpholinopyrimidin-4-yl)-4-methylphenyl)benzamide] | 0.299 nM |
| Cc1ccc(NC(=O)c2cccc(C(F)(F)F)c2)cc1-c1cc(N2C3CCC2COC3)nc(N2CCOCC2)n1 [Example 49, N-(3-(6-(3-oxa-8-azabicyclo[3.2.1]octan-8-yl)-2-morpholinopyrimidin-4-yl)-4-methylphenyl)-3-(trifluoromethyl)benzamide] | 0.376 nM |
| COc1ncc(-c2cc(NC(=O)c3ccnc(C(C)(C)C#N)c3)cnc2C)cc1N1CCOCC1 [Example 129, 2-(2-cyanopropan-2-yl)-N-(6′-methoxy-2-methyl-5′-morpholino-[3,3′-bipyridin]-5-yl)isonicotinamide] | 2.33 nM |
| CNc1nc(-c2cc(NC(=O)c3cccc(C(F)(F)F)c3)ccc2C)cc(N2CCOCC2)n1 [Example 30, N-(4-methyl-3-(2-(methylamino)-6-morpholinopyrimidin-4-yl)phenyl)-3-(trifluoromethyl)benzamide] | 0.322 nM |
| CCn1cc(-c2cc(NC(=O)c3cccc(C(F)(F)F)c3)cnc2C)cc(N2CCOCC2)c1=O [Example 157, N-(1′-ethyl-2-methyl-5′-morpholino-6′-oxo-1′,6′-dihydro-[3,3′-bipyridin]-5-yl)-3-(trifluoromethyl)benzamide] | 2.13 nM |
| Cc1ccc(NC(=O)c2ccnc(C(C)(F)F)c2)cc1-c1cc(N2CCOCC2)c(=O)n(C)c1 [Example 178, 2-(1,1-difluoroethyl)-N-(4-methyl-3-(1-methyl-5-morpholino-6-oxo-1,6-dihydropyridin-3-yl)phenyl)isonicotinamide] | 0.172 nM |
| Cc1ccc(NC(=O)c2cccc(C(F)(F)F)c2)cc1-c1cc(N2CC3CC(C2)O3)c(=O)n(C)c1 [Example 201] | 1.99 nM |
| Cc1ccc(NC(=O)c2csc(C(F)(F)F)n2)cc1-c1cc(N2CCOCC2)nc(N2CCOCC2)n1 [Example 26, N-(3-(2,6-dimorpholinopyrimidin-4-yl)-4-methylphenyl)-2-(trifluoromethyl)thiazole-4-carboxamide] | 0.514 nM |
| Cc1ccc(NC(=O)c2cccc(C(F)(F)F)c2)cc1-c1cc(N2CCOCC2)nc(OCCO)n1 [Example 40, N-(3-(2-(2-hydroxyethoxy)-6-morpholinopyrimidin-4-yl)-4-methylphenyl)-3-(trifluoromethyl)benzamide] | 0.132 nM |
| Cc1ccc(NC(=O)c2cc(C(C)(C)C)no2)cc1-c1cc(N2CCOCC2)nc(N2CCOCC2)n1 [Example 24, 3-(tert-butyl)-N-(3-(2,6-dimorpholinopyrimidin-4-yl)-4-methylphenyl)isoxazole-5-carboxamide] | 0.328 nM |
| CCn1cc(C(=O)Nc2ccc(C)c(-c3ccnc(N4CCOCC4)c3)c2)cc(C(F)(F)F)c1=O [Example 94, 1-ethyl-N-(4-methyl-3-(2-morpholinopyridin-4-yl)phenyl)-6-oxo-5-(trifluoromethyl)-1,6-dihydropyridine-3-carboxamide] | 0.489 nM |
| O=C(Nc1cccc(C(F)(F)F)c1)c1ccc(CO)c(-c2ccnc(N3CCOCC3)c2)c1 [Example 108, 4-(hydroxymethyl)-3-(2-morpholinopyridin-4-yl)-N-(3-(trifluoromethyl)phenyl)benzamide] | 0.778 nM |
| Cc1ccc(NC(=O)c2cccc(C(F)(F)F)c2)cc1-c1cc(N2CCOCC2)nc(NC(CO)CO)n1 [Example 39, N-(3-(2-((1,3-dihydroxypropan-2-yl)amino)-6-morpholinopyrimidin-4-yl)-4-methylphenyl)-3-(trifluoromethyl)benzamide] | 0.322 nM |

Now from value to molecule:

| IC50 | Compound |
| --- | --- |
| 1.94 nM | Cc1ncc(NC(=O)c2cccc(C(F)(F)F)c2)cc1-c1cc(N2CCOCC2)c(=O)n(C(C)C)c1 [Example 133, N-(1′-isopropyl-2-methyl-5′-morpholino-6′-oxo-1′,6′-dihydro-[3,3′-bipyridin]-5-yl)-3-(trifluoromethyl)benzamide] |
| 0.599 nM | Cc1ncc(NC(=O)c2cccc(C(F)(F)F)c2)cc1-c1c[nH]c(=O)c(N2CCOCC2)n1 [Example 121, N-(6-methyl-5-(6-morpholino-5-oxo-4,5-dihydropyrazin-2-yl)pyridin-3-yl)-3-(trifluoromethyl)benzamide] |
| 1.5 nM | Cc1ncc(NC(=O)c2cccc(C(F)(F)F)c2)cc1-c1ccnc(N2CCO[C@H](CNC(=O)CO)C2)c1 [Example 87, (R)—N-(2′-(2-((2-hydroxyacetamido)methyl)morpholino)-2-methyl-[3,4′-bipyridin]-5-yl)-3-(trifluoromethyl)benzamide] |
| 0.547 nM | Cc1ncc(NC(=O)c2cc(C(F)(F)F)cc(S(C)(=O)=O)c2)cc1-c1ccnc(N2CCOCC2)c1 [Example 214] |
| 0.25 nM | Cc1ccc(NC(=O)c2cccc(C(F)(F)F)c2)cc1-c1cc(N2CCCOCC2)nc(N2CCOCC2)n1 [Example 50, N-(4-methyl-3-(2-morpholino-6-(1,4-oxazepan-4-yl)pyrimidin-4-yl)phenyl)-3-(trifluoromethyl)benzamide] |
| 0.255 nM | Cc1ccc(NC(=O)c2cccc(C(F)(F)F)c2)cc1-c1cc(N2CCOCC2)c(=O)n(C)n1 [Example 164, N-(4-methyl-3-(1-methyl-5-morpholino-6-oxo-1,6-dihydropyridazin-3-yl)phenyl)-3-(trifluoromethyl)benzamide] |
| 0.219 nM | Cc1ccc(NC(=O)c2cccc(C(F)(F)F)c2)cc1-c1c[nH]c(=O)c(N2CCOCC2)c1 [Example 146, N-(4-methyl-3-(5-morpholino-6-oxo-1,6-dihydropyridin-3-yl)phenyl)-3-(trifluoromethyl)benzamide] |
| 0.103 nM | Cc1ccc(NC(=O)c2cccc(C(F)(F)F)c2)cc1-c1cc(N2CCOCC2)c(=O)n(CC#N)c1 [Example 147, N-(3-(1-(cyanomethyl)-5-morpholino-6-oxo-1,6-dihydropyridin-3-yl)-4-methylphenyl)-3-(trifluoromethyl)benzamide] |
| 2.69 nM | Cc1ncc(NC(=O)c2cccc(C(F)(F)F)c2)cc1-c1cc(N2CCOCC2)c(=O)n(CCO)c1 [Example 144, N-(1′-(2-hydroxyethyl)-2-methyl-5′-morpholino-6′-oxo-1′,6′-dihydro-[3,3′-bipyridin]-5-yl)-3-(trifluoromethyl)benzamide] |
| 7690 nM | CC(F)(F)c1cc(C(=O)Nc2c[nH]c(=O)c(-c3ccnc(N4CCOCC4)c3)c2)ccn1 [Example 89, 2-(1,1-difluoroethyl)-N-(2′-morpholino-2-oxo-1,2-dihydro-[3,4′-bipyridin]-5-yl)isonicotinamide] |
| 1.34 nM | CC(=O)NC[C@@H]1CN(c2cc(-c3cc(NC(=O)c4ccnc(C(C)(C)C#N)c4)ccc3C)ccn2)CCO1 [Example 85, (R)—N-(3-(2-(2-(acetamidomethyl)morpholino)pyridin-4-yl)-4-methylphenyl)-2-(2-cyanopropan-2-yl)isonicotinamide] |
| 0.332 nM | O=C(Nc1cccc(C(F)(F)F)c1)c1ccc(CF)c(-c2ccnc(N3CCOCC3)c2)c1 [Example 110, 4-(fluoromethyl)-3-(2-morpholinopyridin-4-yl)-N-(3-(trifluoromethyl)phenyl)benzamide] |
| 3.09 nM | Cc1ncc(NC(=O)c2ccnc(S(C)(=O)=O)c2)cc1-c1ccnc(N2CCOCC2)c1 [Example 102, N-(2-methyl-2′-morpholino-[3,4′-bipyridin]-5-yl)-2-(methylsulfonyl)isonicotinamide] |
| 0.134 nM | Cc1ccc(NC(=O)c2cccc(C(F)(F)F)c2)cc1-c1cc(N2CCOCC2)nc(-n2ccnc2)n1 [Example 33, N-(3-(2-(1H-imidazol-1-yl)-6-morpholinopyrimidin-4-yl)-4-methylphenyl)-3-(trifluoromethyl)benzamide] |
| 2.51 nM | Cn1cc(-c2cc(C(=O)Nc3cccc(C(F)(F)F)c3)ccc2C(F)F)cc(N2CCOCC2)c1=O [Example 192, 4-(difluoromethyl)-3-(1-methyl-5-morpholino-6-oxo-1,6-dihydropyridin-3-yl)-N-(3-(trifluoromethyl)phenyl)benzamide] |
| 0.285 nM | Cc1ccc(NC(=O)c2cccc(C(F)(F)F)c2)cc1-c1cc(N2CCOCC2)c(=O)n([C@H](C)C#N)c1 [Example 148, (R)—N-(3-(1-(1-cyanoethyl)-5-morpholino-6-oxo-1,6-dihydropyridin-3-yl)-4-methylphenyl)-3-(trifluoromethyl)benzamide] |
| 24 nM | Cc1ccc(NC(=O)c2cnccn2)cc1-c1ccnc(N2CCOCC2)c1 [Example 70, N-(4-methyl-3-(2-morpholinopyridin-4-yl)phenyl)pyrazine-2-carboxamide] |
